# Test results: patent US11634702B2, “Cell signaling pathway activation by local AC electric field” (ARIZONA BOARD OF REGENTS ON BEHALF OF ARIZONA STATE …, priority 2018, dated 2023)
# Legend:
# [1] = system: EGFR-Ras-ERK signaling pathway in MCF10A cells; assay: ERK activation by AC EF stimulation (ERKTR reporter) in blocker tests; type: cell-based
# [2] = system: EGFR-Ras-ERK signaling pathway in MCF10A cells; assay: ERK activation by EGF chemical stimulation (ERKTR reporter), control groups of the blocker tests; type: cell-based
structure (smiles),measurement,setting,value
CNC(=O)c1cc(Oc2ccc(NC(=O)Nc3ccc(Cl)c(C(F)(F)F)c3)cc2)ccn1 [sorafenib],effect on ERK activation under AC EF stimulation,[1],abolished ERK activation
same,effect on ERK activation by EGF stimulation,[2],abolished ERK activation
